According to paper PMC9456135:

Tested on: CCn1c(=NN=c2sc3cc(S(=O)(=O)O)ccc3n2CC)sc2cc(S(=O)(=O)O)ccc21
Assay: purified protein
Conditions: no added Fe2+, optimum pH 1.5, 50 °C, glycine-HCl

**Q.** With Melac13220 (Methylorubrum extorquens) as the substance, how does the Km read?
**A.** The Km was 76.5 µM.

**Q.** And the kcat?
**A.** The kcat was 14.6 s⁻¹.

**Q.** And the kcat/Km?
**A.** Its kcat/Km is 191000 M⁻¹ s⁻¹.
